Experimental findings from article PMC9027920, “Development of New Thiophene-Containing Triaryl Pyrazoline Derivatives as PI3Kγ Inhibitors” (Molecules, 2022) are described below.

By UniProt entry, the sequences of proteins in these tests, tags left out.
UniProt P48736, whole entry, species assumed: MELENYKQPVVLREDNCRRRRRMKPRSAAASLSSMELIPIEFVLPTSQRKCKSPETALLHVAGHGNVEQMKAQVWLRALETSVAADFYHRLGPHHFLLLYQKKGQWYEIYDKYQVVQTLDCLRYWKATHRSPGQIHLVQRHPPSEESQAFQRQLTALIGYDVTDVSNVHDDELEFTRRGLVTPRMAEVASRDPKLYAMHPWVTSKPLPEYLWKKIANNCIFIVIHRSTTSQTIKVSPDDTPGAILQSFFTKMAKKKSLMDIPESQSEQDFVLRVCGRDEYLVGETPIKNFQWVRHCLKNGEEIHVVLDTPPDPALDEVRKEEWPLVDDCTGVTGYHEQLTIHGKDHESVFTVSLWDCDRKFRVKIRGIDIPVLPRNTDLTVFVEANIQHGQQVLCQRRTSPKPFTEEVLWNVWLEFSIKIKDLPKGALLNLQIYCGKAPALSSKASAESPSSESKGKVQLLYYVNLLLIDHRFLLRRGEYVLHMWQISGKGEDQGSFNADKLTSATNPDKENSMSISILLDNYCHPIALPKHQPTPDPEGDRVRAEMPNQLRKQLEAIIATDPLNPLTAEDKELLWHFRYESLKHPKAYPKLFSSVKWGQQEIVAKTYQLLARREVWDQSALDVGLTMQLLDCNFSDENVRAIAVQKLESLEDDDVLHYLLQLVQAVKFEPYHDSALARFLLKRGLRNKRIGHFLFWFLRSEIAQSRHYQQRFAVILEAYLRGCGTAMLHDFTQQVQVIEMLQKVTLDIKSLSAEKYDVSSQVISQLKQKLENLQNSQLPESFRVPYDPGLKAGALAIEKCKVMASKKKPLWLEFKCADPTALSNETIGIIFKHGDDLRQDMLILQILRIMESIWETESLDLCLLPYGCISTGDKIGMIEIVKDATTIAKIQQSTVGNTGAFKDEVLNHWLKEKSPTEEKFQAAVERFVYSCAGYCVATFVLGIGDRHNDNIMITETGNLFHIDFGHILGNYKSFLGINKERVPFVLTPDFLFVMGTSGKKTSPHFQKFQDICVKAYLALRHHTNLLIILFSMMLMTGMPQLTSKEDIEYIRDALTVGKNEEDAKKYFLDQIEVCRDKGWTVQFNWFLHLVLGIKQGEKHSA

The assay has as its target T1, PI3Kγ (Homo sapiens, UniProt P48736).
T1 construct: purchased Perkin–Elmer
Nature of the assay: competitive fluorescence polarization kinase activity assay, PI3Kγ. The assay is classed as biochemical. The following applies: fluorescence polarization kinase kit. The text has this: Initially, we directly tested the inhibition potency of the synthesized compounds on PI3K by using competitive fluorescence polarization kinase kits, as mentioned in previous investigations. According to the significance and research maturity of the isoforms as referenced, the PI3Kα and PI3Kγ isoforms were preliminarily included here. The origin ligand of the protein crystal complex LY294002 was selected as the positive control. General speaking, the majority of the tested compounds indicated potent PI3K inhibitory potency, which set the basis for discussing the structure–activity relationship (SAR).
The competitive fluorescence polarization kinase activity assay was used to test the inhibition potency on PI3K, as mentioned in previous investigations. In general, following the instruction of the Kit (Perkin–Elmer, Waltham, MA, USA), the 10 μL scale of PI3K activity reaction was conducted with the substrate diC8-PI(4,5)P2 in a solution containing 2.5 mM MgCl2, 5 mM HEPES, […] and 10 mM DTT at pH 7.0. Into the 10 μL reaction wells with 50 ng enzyme and […], different concentrations of the tested compounds were added, respectively. […] With appropriate filters, the polarization values of the corresponding dye were recorded to calculate the enzymatic activity of PI3K in this reacting procedure. […]
A general note: In fluorescence polarisation assays a small probe gives low polarisation when free and higher when bound to something large.

Take `O=c1cc(N2CCOCC2)oc2c(-c3ccccc3)cccc12` [LY294002, reference compound]: the IC50 – broadly, the concentration needed to halve the response being measured – was 777 ± 71 nM.
